Columns and labels:
[1] = molecular target: Mu-type opioid receptor (Cavia porcellus) (UniProt P97266); experiment: Agonist activity at mu opioid receptor in guinea pig ileum assessed as inhibition of electrically-stimulated muscle contraction
[2] = Selectivity ratio of Ki for kappa opioid receptor in guinea pig brain membranes to Ki for mu opioid receptor in rat brain membranes

Amino acid sequences for entries named in this document (tags omitted).
UniProt P97266, whole entry: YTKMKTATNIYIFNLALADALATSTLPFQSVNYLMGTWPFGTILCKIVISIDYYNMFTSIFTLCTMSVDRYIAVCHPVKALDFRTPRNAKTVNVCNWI

## O=CN1CC[C@]23c4c5ccc(O)c4O[C@H]2[C@@H](O)C=C[C@H]3[C@H]1C5
[1]
  Ke: 1240 nM
[2]
  Ratio Ki: 1
